From ChEMBL document CHEMBL1132136, “Ring constrained analogues of the orvinols: the furanomorphides” (1999) come the findings set out here.

Each structure is given as a SMILES string.

The species named for assay [1] is Cavia porcellus. In words: Agonistic activity in electrically stimulated guinea pig ileum preparation (GPI) in presence of mu-selective antagonist CTAP.
For assay [2], the species on record is Cavia porcellus. In words: Agonistic activity in electrically stimulated guinea pig ileum preparation (GPI).

As to `C[C@@H](NC(=O)[C@@H](N)Cc1ccc(O)cc1)C(=O)NCC(=O)N(C)[C@@H](Cc1ccccc1)C(=O)NCCO`, in the assay filed under Cavia porcellus [1], the Ke amounted to 25.3 nM. The IC50 is the concentration at which inhibition is half-maximal. The low end stands for greater potency, the high end for weaker potency. For the molecule `CO[C@@]12CC[C@@]3(C[C@@H]1[C@](C)(O)C(C)(C)C)[C@H]1Cc4ccc(O)c5c4[C@@]3(CCN1CC1CC1)[C@H]2O5`, in the assay listed under Cavia porcellus [2], the half-maximal inhibitory concentration (IC50) was 8.13 nM. Still for that read-out and setting: then `CC1(C)OC23CCC4(CC2C1(C)C)C1Cc2ccc(O)c5c2C4(CCN1CC1CC1)C3O5` (stereo not drawn), with 52.6 nM.
